According to patent US7687482B2, “Bisphosphonate compounds and methods” (The Board of Trustees of the University of Illinois, priority 2006, dated 2010):
pIC50: −log10 of the molar value.

Amino acid sequences for entries named in this document (tags omitted).
UniProt Q57WF1, entry or part of it: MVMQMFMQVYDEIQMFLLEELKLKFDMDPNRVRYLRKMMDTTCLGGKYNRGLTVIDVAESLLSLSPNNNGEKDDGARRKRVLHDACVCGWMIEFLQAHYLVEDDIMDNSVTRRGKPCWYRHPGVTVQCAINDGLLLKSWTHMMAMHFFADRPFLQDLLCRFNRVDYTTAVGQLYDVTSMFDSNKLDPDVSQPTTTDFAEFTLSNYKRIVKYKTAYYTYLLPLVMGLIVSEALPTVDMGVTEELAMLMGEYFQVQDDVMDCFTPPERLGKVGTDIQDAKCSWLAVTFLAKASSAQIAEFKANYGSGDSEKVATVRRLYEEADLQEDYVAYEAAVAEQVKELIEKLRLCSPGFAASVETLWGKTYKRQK

Legend:
T. brucei FPPS = T. brucei FPPS (Trypanosoma brucei, UniProt Q57WF1); experiment: biochemical
D. discoideum = D. discoideum growth inhibition; assay type: cell-based; details: Dictyostelium discoideum, read-out: D. discoideum IC50

## O=P(O)(O)C(O)(Cc1cccnc1)P(=O)(O)O [3 (risedronate), risedronate, reference compound]
T. brucei FPPS
  pIC50: 7.00
D. discoideum
  pIC50: 5.55
